Experimental data reported in ChEMBL document CHEMBL1157218, “Cycloviolacin H4, a hydrophobic cyclotide from Viola hederaceae” (J Nat Prod, 2006).

Experiment: Toxicity against human type A red blood cells assessed as hemolytic activity after 1hr
Format: cell-based, Erythrocyte
Conditions: read-out: HD50

Which HC50 at 1 h does the source give for `CC[C@H](C)[C@H](NC(=O)CN)C(=O)NCC(=O)N[C@@H](C)C(=O)N[C@H](C(=O)N[C@@H](CC(C)C)C(=O)N[C@@H](CCCCN)C(=O)N[C@H](C(=O)N[C@@H](CC(C)C)C(=O)N[C@H](C(=O)N[C@H](C(=O)NCC(=O)N[C@@H](CC(C)C)C(=O)N1CCC[C@H]1C(=O)N[C@@H](C)C(=O)N[C@@H](CC(C)C)C(=O)N[C@H](C(=O)N[C@@H](CO)C(=O)N[C@@H](Cc1c[nH]c2ccccc12)C(=O)N[C@H](C(=O)N[C@@H](CCCCN)C(=O)N[C@@H](CCCNC(=N)N)C(=O)N[C@@H](CCCCN)C(=O)N[C@@H](CCCNC(=N)N)C(=O)N[C@@H](CCC(N)=O)C(=O)N[C@@H](CCC(N)=O)C(N)=O)[C@@H](C)CC)[C@@H](C)CC)[C@@H](C)O)[C@@H](C)O)C(C)C)C(C)C` [MELITTIN] here?
The HC50 at 1 h was 940 nM.
